Tested on: MALME3 melanoma viability, CellTiter-Glo luminescence, 24 h
Experiment: MALME3 melanoma cell viability loss, dose response, orthogonal assay for MITF inhibitor project, CellTiter-Glo, cherry-picked (AID 493191)

C1CCC(C(CC2CCCCN2)C2CCCCC2)CC1 (stereo unspecified) gave an AC50 of 17.5 µM.
